Experimental data taken from ChEMBL document CHEMBL4028893, “Discovery and Optimization of Potent, Cell-Active Pyrazole-Based Inhibitors of Lactate Dehydrogenase (LDH)” (J Med Chem, 2017).

What was measured:
[1] = molecular target: T1, L-lactate dehydrogenase A chain (Homo sapiens, UniProt P00338)
[2] = molecular target: T1, L-lactate dehydrogenase A chain; remark: listed apart in the source
[3] = molecular target: T2, L-lactate dehydrogenase (Homo sapiens, UniProt V9HWB9); assay: Inhibition of LDH in human MIAPaCa2 cells assessed as reduction in lactate production preincubated for 2 hrs measured after 30 mins by high throughput fluorescence assay; assay type: cell-based
[4] = test system: A673; assay: Cytotoxicity against human A673 cells assessed as long term cell growth inhibition measured every 4 hrs for 120 hrs by incucyte zoom live cell analysis; assay type: functional, cell-based
[5] = test system: MIA PaCa-2; assay: Cytotoxicity against human MIAPaCa2 cells assessed as long term cell growth inhibition measured every 4 hrs for 120 hrs by incucyte zoom live cell analysis; assay type: functional, cell-based
[6] = molecular target: T2, L-lactate dehydrogenase; assay: Inhibition of LDH in human A673 cells assessed as reduction in lactate production preincubated for 2 hrs measured after 30 mins by high throughput fluorescence assay; assay type: cell-based
[7] = test system: A673; assay: cells; conditions: Homo sapiens, A673, 48 h
[8] = test system: MIA PaCa-2; assay: cells; conditions: Homo sapiens, MIA PaCa-2, 48 h

Compound | IC50 [1] | IC50 [2] | IC50 [3] | IC50 [4] | IC50 [5] | IC50 [6] | IC50 [7] | IC50 [8]
NS(=O)(=O)c1ccc(Cc2c(-c3cccc(-c4ccccc4)c3)nn(-c3nc(C(=O)O)cs3)c2O)cc1 | 349 nM | 349 nM |  |  |  |  |  | 
NS(=O)(=O)c1ccc(Cc2c(-c3ccccc3)nn(-c3nc(C(=O)O)cs3)c2CC2CC2)cc1 | 9 nM | 9 nM |  |  |  |  |  | 
NS(=O)(=O)c1ccc(Cc2c(-c3ccc(F)c(F)c3)nn(-c3nc(C(=O)O)cs3)c2O)cc1 | 672 nM | 672 nM | > 57 µM |  |  |  |  | 
NS(=O)(=O)c1ccc(Nc2cn(-c3nc(C(=O)O)cs3)nc2-c2cccc(-c3ccccc3)c2)cc1 | 57 nM | 57 nM |  |  |  |  |  | 
NS(=O)(=O)c1ccc(Cc2c(-c3cccc(-c4ccccc4)c3)nn(-c3nc(C(=O)O)cs3)c2C(F)(F)F)cc1 | 53 nM | 53 nM |  |  |  |  |  | 
NS(=O)(=O)c1ccc(Cc2c(-c3ccccc3)nn(-c3nc(C(=O)O)cs3)c2-c2cccnc2)cc1 | 349 nM | 349 nM |  |  |  |  |  | 
NS(=O)(=O)c1ccc(Cc2c(-c3cccc(-c4ccccc4)c3)nn(-c3nc(C(=O)O)cs3)c2CC2CC2)cc1 |  |  | 0.854 µM | 2230 nM | 1210 nM |  |  | 
NS(=O)(=O)c1ccc(Cc2c(-c3ccccc3)nn(-c3nc(C(=O)O)cs3)c2C2CC2)cc1 | 19 nM | 19 nM | 17.5 µM |  |  | 14.7 µM | > 57 µM | > 57 µM
NS(=O)(=O)c1ccc(Cc2cn(-c3nc(C(=O)O)cs3)nc2-c2cccc(-c3ccccc3)c2)cc1 | 38 nM | 38 nM |  |  |  |  |  | 
NS(=O)(=O)c1ccc(Oc2c(-c3cccc(-c4ccccc4)c3)nn(-c3nc(C(=O)O)cs3)c2C2CC2)cc1 | 110 nM | 110 nM |  |  |  | 1.92 µM |  | 
O=C1N[C@](c2ccc(N3CCOCC3)cc2)(c2ccsc2)CC(O)=C1Sc1ccccc1Cl |  |  |  |  |  |  | 2.63 µM | 1.24 µM
O=C(O)c1csc(-n2nc(-c3ccc(F)cc3)cc2C(F)(F)F)n1 | 23400 nM | 32300 nM |  |  |  |  |  | 
Nc1c(Cc2ccc(S(N)(=O)=O)cc2)c(-c2cccc(-c3ccccc3)c2)nn1-c1nc(C(=O)O)cs1 | 65 nM | 65 nM | 17.7 µM |  |  | 9.45 µM | > 57 µM | > 57 µM
NS(=O)(=O)c1ccc(Cc2c(-c3cccc(-c4ccccc4F)c3)nn(-c3nc(C(=O)O)cs3)c2O)cc1 | 754 nM | 754 nM |  |  |  |  |  | 
NS(=O)(=O)c1ccc(Cc2cn(-c3nc(C(=O)O)cs3)nc2-c2ccccc2)cc1 |  |  | 33.5 µM |  |  | 25.2 µM | > 57 µM | > 57 µM
